Article PMC12163019 (Frontiers in Pharmacology, 2025)

By UniProt entry, the sequences of proteins in these tests, tags left out. Residues count along the entry.
UniProt P02768, 25-609 limits assumed: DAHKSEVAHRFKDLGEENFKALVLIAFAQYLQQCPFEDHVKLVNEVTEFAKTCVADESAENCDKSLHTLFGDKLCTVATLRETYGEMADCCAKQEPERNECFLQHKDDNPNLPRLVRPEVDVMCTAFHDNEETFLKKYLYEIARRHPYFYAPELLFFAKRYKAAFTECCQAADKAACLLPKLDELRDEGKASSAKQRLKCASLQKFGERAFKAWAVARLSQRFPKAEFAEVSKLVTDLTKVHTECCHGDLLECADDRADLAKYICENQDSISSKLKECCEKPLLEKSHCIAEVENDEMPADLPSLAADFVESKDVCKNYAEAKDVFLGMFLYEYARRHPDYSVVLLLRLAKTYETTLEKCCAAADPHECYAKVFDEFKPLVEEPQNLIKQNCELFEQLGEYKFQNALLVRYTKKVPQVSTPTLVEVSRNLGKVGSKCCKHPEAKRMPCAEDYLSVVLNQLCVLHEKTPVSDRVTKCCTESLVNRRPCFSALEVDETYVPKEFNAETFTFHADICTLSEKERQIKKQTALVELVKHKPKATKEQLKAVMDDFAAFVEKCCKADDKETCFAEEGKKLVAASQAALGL

Columns and labels:
IL-1β = test: Ex vivo whole-blood LPS stimulation, IL-1β release; assay type: cell-based, human; conditions: 24-h LPS 100 ng/mL
IL-6 = test: Ex vivo whole-blood LPS stimulation, IL-6 release; assay type: cell-based, human; conditions: 24-h LPS 100 ng/mL
human serum albumin = human serum albumin (Homo sapiens, UniProt P02768)
[1] = system: alpha-acid glycoprotein (AGP)
[2] = MAD study, single-dose period: plasma PK, fed; design: species or system human (healthy men); conditions: in vivo
IL-6 release = test: In vitro human whole-blood assay, IL-6 release after resiquimod (R848) stimulation; conditions: read-out: IC50 for IL-6 release inhibition; mean and 95% CI
[3] = MAD study, multiple-dose period: TEAEs, all events; assay type: in vivo, human (healthy men); conditions: 120 mg BID
IFN-γ = test: Ex vivo whole-blood LPS stimulation, IFN-γ release; assay type: cell-based, human; conditions: 24-h LPS 100 ng/mL
TNFα = test: Ex vivo whole-blood LPS stimulation, TNFα release; assay type: cell-based, human
rat splenic cells = conditions: ref Bothe et al., 2024; cited from earlier work

Kd (human serum albumin): 178000 nM | Kd [1]: 400 nM | AUC [2]: 6.74 (27.0) mg·h/L | Cmax [2]: 0.251 (22.8) mg/L | IC50 (IL-6 release): 86 nM
Compound: CC(C)(O)c1cc2nn(CCS(C)(=O)=O)cc2cc1NC(=O)c1cccc(C(F)(F)F)n1
IL-1β change from baseline 6 h post-dose (IL-1β; 30 mg): -116 pg/mL | IL-1β change from baseline 6 h post-dose (IL-1β; 120 mg): -513 pg/mL | IL-1β change from baseline 6 h post-dose (IL-1β; 480 mg split fed): -698 pg/mL | IL-1β change from baseline 6 h post-dose (IL-1β; 480 mg): -597 pg/mL | IL-6 change from baseline 6 h post-dose (IL-6; 30 mg): -1357 pg/mL | IL-6 change from baseline 6 h post-dose (IL-6; 120 mg): -3025 pg/mL | IL-6 change from baseline 6 h post-dose (IL-6; 480 mg split fed): -2201 pg/mL | IL-6 change from baseline 6 h post-dose (IL-6; 480 mg): -1285 pg/mL | Infections and infestations [3]: 2 (25.0) n (%) | IFN-γ change from baseline 6 h post-dose (IFN-γ; 30 mg): -2037 pg/mL | IFN-γ change from baseline 6 h post-dose (IFN-γ; 120 mg): -4628 pg/mL | IFN-γ change from baseline 6 h post-dose (IFN-γ; 480 mg split fed): -13990 pg/mL | IFN-γ change from baseline 6 h post-dose (IFN-γ; 480 mg): -2569 pg/mL | TNFα change from baseline 6 h post-dose (TNFα; 30 mg, 6-h LPS 0.1 ng/mL): -1155 pg/mL | TNFα change from baseline 6 h post-dose (TNFα; 30 mg, 24-h LPS 100 ng/mL): 48 pg/mL | TNFα change from baseline 6 h post-dose (TNFα; 120 mg, 6-h LPS 0.1 ng/mL): -418 pg/mL | TNFα change from baseline 6 h post-dose (TNFα; 120 mg, 24-h LPS 100 ng/mL): -291 pg/mL | TNFα change from baseline 6 h post-dose (TNFα; 480 mg split fed, 6-h LPS 0.1 ng/mL): -949 pg/mL | TNFα change from baseline 6 h post-dose (TNFα; 480 mg split fed, 24-h LPS 100 ng/mL): -674 pg/mL | TNFα change from baseline 6 h post-dose (TNFα; 480 mg, 6-h LPS 0.1 ng/mL): -238 pg/mL | TNFα change from baseline 6 h post-dose (TNFα; 480 mg, 24-h LPS 100 ng/mL): -25 pg/mL | return of TNFα levels (TNFα; 200-mg BID group): ≤ 72 h | time for TNFα release to return to baseline after end of treatment (TNFα; MAD study): ≤ 3 days | inhibition of TNFα secretion (rat splenic cells): strongly inhibits
